Values joined by “and” are separate entries in the source; they are usually repeats but may differ in a detail not shown here. Equal values may be shown once.
Tested on: Patients undergoing elective colonoscopy
Experiment: Example 1A: sedation for elective colonoscopy, mg/kg bolus dose-ranging with fentanyl pretreatment (Modified OAA/S)
Settings: for Time to Fully Alert, Mean / Time to Fully Alert, Median / Time to Fully Recovered, Mean / Time to Fully Recovered, Median / Time to Ready for Discharge, Mean / Time to Ready for Discharge, Median: from withdrawal of colonoscope
[1] = initial bolus dose 620 to <777 mg
[2] = initial bolus dose 777 to <955 mg
[3] = initial bolus dose <777 mg (second quartile column)
[4] = total dose 762 to <891 mg, disodium salt

O-phosphonooxymethyl propofol disodium salt
Incidence (%) of patients who required supplemental doses to maintain sedation (620-<777 mg): 52.2% | Number of patients who needed supplemental doses to allow the start of procedure (620-<777 mg): 3 | Number of patients who required supplemental doses to maintain sedation (620-<777 mg): 12 | Percent of patients who needed supplemental doses to allow the start of procedure (620-<777 mg): 13.0% | Incidence (%) of patients who required supplemental doses to maintain sedation (777-<955): 30.4% | Number of patients who needed supplemental doses to allow the start of procedure (777-<955): 2 | Number of patients who required supplemental doses to maintain sedation (777-<955): 7 | Percent of patients who needed supplemental doses to allow the start of procedure (777-<955): 8.7% | Incidence (%) of patients who required supplemental doses to maintain sedation (<620 mg): 68.2% | Number of patients who needed supplemental doses to allow the start of procedure (<620 mg): 12 | Number of patients who required supplemental doses to maintain sedation (<620 mg): 15 | Percent of patients who needed supplemental doses to allow the start of procedure (<620 mg): 54.5% | Number of Patients administered a total of 1 dose (initial plus supplemental) (All Patients): 49 | Number of Patients administered a total of 2 doses (initial plus supplemental) (All Patients): 25 | Number of Patients administered a total of 3 doses (initial plus supplemental) (All Patients): 8 | Number of Patients administered a total of 4 doses (initial plus supplemental) (All Patients): 7 | Number of Patients administered a total of 5 doses (initial plus supplemental) (All Patients): 2 | Number of Patients requiring 0 supplemental doses to maintain sedation throughout the procedure (All Patients): 55 | Number of Patients requiring 1 dose to allow start of procedure (All Patients): 73 | Number of Patients requiring 1 supplemental dose to maintain sedation throughout the procedure (All Patients): 28 | Number of Patients requiring 2 doses to allow start of procedure (All Patients): 11 | Number of Patients requiring 2 supplemental doses to maintain sedation throughout the procedure (All Patients): 8 | Number of Patients requiring 3 doses to allow start of procedure (All Patients): 6 | Number of Patients requiring 4 doses to allow start of procedure (All Patients): 1 | Time to Achieve Sedation (first Modified OAA/S score ≦4), Mean (All Patients): 2.7 min | Time to Achieve Sedation (first Modified OAA/S score ≦4), Median (All Patients): 2.0 min | Time to Fully Alert, Mean (All Patients): 11.2 min | Time to Fully Alert, Median (All Patients): 11.0 min | Time to Fully Recovered, Mean (All Patients): 20.1 min | Time to Fully Recovered, Median (All Patients): 20.0 min | Time to Ready for Discharge, Mean (All Patients): 37.2 min | Time to Ready for Discharge, Median (All Patients): 37.0 min | Cumulative dose at which mean Modified OAA/S scores fell below 2 during the procedure (FIG. 2): > 777 mg | Time to induction of mild to moderate sedation levels (Modified OAA/S≧2 and ≦4) (FIG. 2, following administration of 620 mg to 955 mg): ≤ 2 min | Percent of time patients remained within Modified OAA/S levels of 2, 3, or 4 during colonoscopy (FIG. 4A, <620 mg up to procedure start): 83.6% | Percent of procedural time at MOAA/S levels more consistent with deep sedation, range (FIG. 4A, increasing bolus dose): 16.2% to 43.2% | Percent of time patients remained within Modified OAA/S levels of 2, 3, or 4 during colonoscopy, range (FIG. 4A, increasing initial bolus doses (higher quartiles)): 78.9% to 52.2% | Percent of patients for whom the initial bolus dose was sufficient to start the procedure (all patients): 80.2% | Percent of patients who required more than 1 supplemental dose to maintain sedation (all patients): 8.8% | Time of recovery from mild to moderate sedation to a Modified OAA/S of 5 after end of procedure (cumulative doses from 620 mg to 955 mg): 9 to 12 min | Percentage of patients who required only a single dose to initiate and maintain sedation (first quartile of initial bolus dose): 18.2% | Percentage of patients who required only a single dose to initiate and maintain sedation (fourth quartile of initial bolus dose): 87.0% | Number of Patients administered a total of 1 dose (initial plus supplemental) [1]: 10 | Number of Patients administered a total of 2 doses (initial plus supplemental) [1]: 10 | Number of Patients administered a total of 3 doses (initial plus supplemental) [1]: 1 | Number of Patients administered a total of 4 doses (initial plus supplemental) [1]: 2 | Number of Patients administered a total of 5 doses (initial plus supplemental) [1]: 0 | Number of Patients requiring 1 dose to allow start of procedure [1]: 20 | Number of Patients requiring 2 doses to allow start of procedure [1]: 1 | Number of Patients requiring 3 doses to allow start of procedure [1]: 2 | Number of Patients requiring 4 doses to allow start of procedure [1]: 0 | Time to Achieve Sedation (first Modified OAA/S score ≦4), Mean [1]: 2.7 min | Time to Achieve Sedation (first Modified OAA/S score ≦4), Median [1]: 2.5 min | Time to Fully Alert, Mean [1]: 9.3 min | Time to Fully Alert, Median [1]: 8.0 min | Time to Fully Recovered, Mean [1]: 17.1 min | Time to Fully Recovered, Median [1]: 17.0 min | Time to Ready for Discharge, Mean [1]: 35.8 min | Time to Ready for Discharge, Median [1]: 34.0 min | Number of Patients administered a total of 1 dose (initial plus supplemental) [2]: 15 | Number of Patients administered a total of 2 doses (initial plus supplemental) [2]: 6 | Number of Patients administered a total of 3 doses (initial plus supplemental) [2]: 1 | Number of Patients administered a total of 4 doses (initial plus supplemental) [2]: 1 | Number of Patients administered a total of 5 doses (initial plus supplemental) [2]: 0 | Number of Patients requiring 0 supplemental doses to maintain sedation throughout the procedure [2]: 16 | Number of Patients requiring 1 dose to allow start of procedure [2]: 21 | Number of Patients requiring 1 supplemental dose to maintain sedation throughout the procedure [2]: 5 | Number of Patients requiring 2 doses to allow start of procedure [2]: 2 | Number of Patients requiring 2 supplemental doses to maintain sedation throughout the procedure [2]: 2 | Number of Patients requiring 3 doses to allow start of procedure [2]: 0 | Number of Patients requiring 4 doses to allow start of procedure [2]: 0 | Time to Achieve Sedation (first Modified OAA/S score ≦4), Mean [2]: 2.0 min | Time to Achieve Sedation (first Modified OAA/S score ≦4), Median [2]: 2.0 min | Time to Fully Alert, Mean [2]: 12.0 min | Time to Fully Alert, Median [2]: 13.0 min | Time to Fully Recovered, Mean [2]: 21.7 min | Time to Fully Recovered, Median [2]: 21.0 min | Time to Ready for Discharge, Mean [2]: 39.6 min | Time to Ready for Discharge, Median [2]: 38.0 min | Number of Patients administered a total of 1 dose (initial plus supplemental) (initial bolus dose <620 mg): 4 | Number of Patients administered a total of 2 doses (initial plus supplemental) (initial bolus dose <620 mg): 6 | Number of Patients administered a total of 3 doses (initial plus supplemental) (initial bolus dose <620 mg): 6 | Number of Patients administered a total of 4 doses (initial plus supplemental) (initial bolus dose <620 mg): 4 | Number of Patients administered a total of 5 doses (initial plus supplemental) (initial bolus dose <620 mg): 2 | Number of Patients requiring 0 supplemental doses to maintain sedation throughout the procedure (initial bolus dose <620 mg): 7 | Number of Patients requiring 1 dose to allow start of procedure (initial bolus dose <620 mg): 10 | Number of Patients requiring 1 supplemental dose to maintain sedation throughout the procedure (initial bolus dose <620 mg): 10 | Number of Patients requiring 2 doses to allow start of procedure (initial bolus dose <620 mg): 7 | Number of Patients requiring 2 supplemental doses to maintain sedation throughout the procedure (initial bolus dose <620 mg): 5 | Number of Patients requiring 3 doses to allow start of procedure (initial bolus dose <620 mg): 4 | Number of Patients requiring 4 doses to allow start of procedure (initial bolus dose <620 mg): 1 | Time to Achieve Sedation (first Modified OAA/S score ≦4), Mean (initial bolus dose <620 mg): 4.3 min | Time to Achieve Sedation (first Modified OAA/S score ≦4), Median (initial bolus dose <620 mg): 3.0 min | Time to Fully Alert, Mean (initial bolus dose <620 mg): 11.5 min | Time to Fully Alert, Median (initial bolus dose <620 mg): 12.5 min | Time to Fully Recovered, Mean (initial bolus dose <620 mg): 18.4 min | Time to Fully Recovered, Median (initial bolus dose <620 mg): 20.5 min | Time to Ready for Discharge, Mean (initial bolus dose <620 mg): 32.9 min | Time to Ready for Discharge, Median (initial bolus dose <620 mg): 33.0 min | Number of Patients requiring 0 supplemental doses to maintain sedation throughout the procedure [3]: 11 | Number of Patients requiring 1 supplemental dose to maintain sedation throughout the procedure [3]: 11 | Number of Patients requiring 2 supplemental doses to maintain sedation throughout the procedure [3]: 1 | Number of Patients administered a total of 1 dose (initial plus supplemental) (initial bolus dose ≧955 mg): 20 | Number of Patients administered a total of 2 doses (initial plus supplemental) (initial bolus dose ≧955 mg): 3 | Number of Patients administered a total of 3 doses (initial plus supplemental) (initial bolus dose ≧955 mg): 0 | Number of Patients administered a total of 4 doses (initial plus supplemental) (initial bolus dose ≧955 mg): 0 | Number of Patients administered a total of 5 doses (initial plus supplemental) (initial bolus dose ≧955 mg): 0 | Number of Patients requiring 0 supplemental doses to maintain sedation throughout the procedure (initial bolus dose ≧955 mg): 21 | Number of Patients requiring 1 dose to allow start of procedure (initial bolus dose ≧955 mg): 22 | Number of Patients requiring 1 supplemental dose to maintain sedation throughout the procedure (initial bolus dose ≧955 mg): 2 | Number of Patients requiring 2 doses to allow start of procedure (initial bolus dose ≧955 mg): 1 | Number of Patients requiring 2 supplemental doses to maintain sedation throughout the procedure (initial bolus dose ≧955 mg): 0 | Number of Patients requiring 3 doses to allow start of procedure (initial bolus dose ≧955 mg): 0 | Number of Patients requiring 4 doses to allow start of procedure (initial bolus dose ≧955 mg): 0 | Time to Achieve Sedation (first Modified OAA/S score ≦4), Mean (initial bolus dose ≧955 mg): 1.8 min | Time to Achieve Sedation (first Modified OAA/S score ≦4), Median (initial bolus dose ≧955 mg): 2.0 min | Time to Fully Alert, Mean (initial bolus dose ≧955 mg): 12.0 min | Time to Fully Alert, Median (initial bolus dose ≧955 mg): 11.0 min | Time to Fully Recovered, Mean (initial bolus dose ≧955 mg): 22.9 min | Time to Fully Recovered, Median (initial bolus dose ≧955 mg): 20.5 min | Time to Ready for Discharge, Mean (initial bolus dose ≧955 mg): 40.2 min | Time to Ready for Discharge, Median (initial bolus dose ≧955 mg): 40.0 min | Patients who received alternative (rescue) medication and were considered treatment failures (of the 93 treated patients): two | Percentage of patients who required only a single dose to initiate and maintain sedation (second quartile of initial bolus dose): 43.5% | Percentage of patients who required only a single dose to initiate and maintain sedation (third quartile of initial bolus dose): 65.2% | Time to Achieve Sedation (first Modified OAA/S score ≦4), Mean (total dose 762 to <891 mg): 2.3 min | Time to Achieve Sedation (first Modified OAA/S score ≦4), Median (total dose 762 to <891 mg): 2.0 min | Time to Fully Alert, Mean (total dose 762 to <891 mg): 11.3 min | Time to Fully Alert, Median (total dose 762 to <891 mg): 11.0 min | Time to Fully Recovered, Mean (total dose 762 to <891 mg): 19.0 min | Time to Ready for Discharge, Mean (total dose 762 to <891 mg): 36.3 min | Time to Fully Recovered, Median [4]: 18 min and 18.0 min | Time to Ready for Discharge, Median [4]: 32 min and 32.0 min | Time to Achieve Sedation (first Modified OAA/S score ≦4), Mean (total dose 891 to <1041 mg): 3.8 min | Time to Achieve Sedation (first Modified OAA/S score ≦4), Median (total dose 891 to <1041 mg): 2.6 min | Time to Fully Alert, Mean (total dose 891 to <1041 mg): 11.6 min | Time to Fully Alert, Median (total dose 891 to <1041 mg): 11.0 min | Time to Fully Recovered, Mean (total dose 891 to <1041 mg): 20.5 min | Time to Fully Recovered, Median (total dose 891 to <1041 mg): 19.5 min | Time to Ready for Discharge, Mean (total dose 891 to <1041 mg): 38.5 min | Time to Ready for Discharge, Median (total dose 891 to <1041 mg): 38.0 min | Time to Achieve Sedation (first Modified OAA/S score ≦4), Mean (total dose <762 mg): 2.3 min | Time to Achieve Sedation (first Modified OAA/S score ≦4), Median (total dose <762 mg): 2.0 min | Time to Fully Alert, Mean (total dose <762 mg): 9.2 min | Time to Fully Alert, Median (total dose <762 mg): 8.0 min | Time to Fully Recovered, Mean (total dose <762 mg): 19.0 min | Time to Fully Recovered, Median (total dose <762 mg): 21.0 min | Time to Ready for Discharge, Mean (total dose <762 mg): 33.8 min | Time to Ready for Discharge, Median (total dose <762 mg): 35.0 min | Time to Achieve Sedation (first Modified OAA/S score ≦4), Mean (total dose ≧1041 mg): 2.3 min | Time to Achieve Sedation (first Modified OAA/S score ≦4), Median (total dose ≧1041 mg): 2.0 min | Time to Fully Alert, Mean (total dose ≧1041 mg): 12.6 min | Time to Fully Alert, Median (total dose ≧1041 mg): 12.0 min | Time to Fully Recovered, Mean (total dose ≧1041 mg): 21.8 min | Time to Fully Recovered, Median (total dose ≧1041 mg): 20.5 min | Time to Ready for Discharge, Mean (total dose ≧1041 mg): 39.9 min | Time to Ready for Discharge, Median (total dose ≧1041 mg): 40.0 min | Incidence (%) of patients who required supplemental doses to maintain sedation (≧955): 8.7% | Number of patients who needed supplemental doses to allow the start of procedure (≧955): 1 | Number of patients who required supplemental doses to maintain sedation (≧955): 2 | Percent of patients who needed supplemental doses to allow the start of procedure (≧955): 4.3%
